Measured affinities in a library of Ab-14 light chain variants

Reference: Engelhart et al. 2022, doi:10.1038/s41597-022-01779-4. File: FLAb, binding data.

Target: peptide PDVDLGDISGINAS, taken from heptad repeat 2 (HR2) of SARS-CoV-2 spike.

Each scFv is VH, a 15-residue (Gly4Ser)3 linker, VL, as in the parent Ab-14, and differs from it in the CDRs of the light chain only.
VH: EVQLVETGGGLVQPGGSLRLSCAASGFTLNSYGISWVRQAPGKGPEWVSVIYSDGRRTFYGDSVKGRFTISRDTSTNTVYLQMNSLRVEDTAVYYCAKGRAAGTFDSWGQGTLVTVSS
VL: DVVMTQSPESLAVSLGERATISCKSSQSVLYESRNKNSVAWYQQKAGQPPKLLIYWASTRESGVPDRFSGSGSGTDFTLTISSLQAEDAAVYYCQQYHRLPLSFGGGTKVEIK

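The parent was found by panning a naive human phage display library on the peptide. Library AAYL50 holds single substitutions and randomly drawn double and triple substitutions in the CDRs. Affinity was read by AlphaSeq, a pooled yeast mating assay with surface-displayed partners. Mating (16 h, 30 °C) was followed by selection of diploids and sequencing of their barcodes. Each replicate has its own calibration line, from reference interactions of the BCL2 family. Each pool was mated in three replicate cultures.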

Substitutions are numbered in sequence along the VL above, starting at 1 (not Kabat). Every variant below is changed at K24 of the VL (sequential numbering). Values are apparent Kd, the geometric mean of the replicates that gave a signal; lower means stronger binding. "not detected" marks a missing value. The strain was present, yet no cells mated with the target were sequenced in any replicate, which points to weak or no binding. Nonspecific signal, from three strains lacking the peptide, appeared in 18% of pairings of library AAYL50, centred on 15 µM (5% of these signals below 970 nM); values are not corrected for it.

changes	Kd	detected
K24I/P101N	3.7 µM	1 of 3
K24M/Q27F	61 nM	3 of 3
K24W/N37T/W56V	26 µM	2 of 3
K24E/R34W/P101K	not detected	0 of 3
K24Q/S25P/L100R	not detected	0 of 3
K24I/S26P/E61F	30 nM	3 of 3
K24Q/K36Q/T59Y	9.4 nM	3 of 3
K24W/A40Q/L100M	not detected	0 of 3
K24R/S33I/S103G	not detected	0 of 3
K24Y/V29C/Y31H	32 nM	3 of 3
K24I/E32H/N37E	not detected	0 of 3
K24D/S25L	1.7 nM	3 of 3
K24N/V29E/N37I	33 nM	3 of 3
K24V/Q27V/N35P	94 nM	3 of 3
K24A/Q27L/Q96L	not detected	0 of 3
K24L/V29H/W56R	8.4 nM	3 of 3
K24L	not detected	0 of 3
K24S	8.8 nM	3 of 3
K24S/N37Q/W56Q	950 pM	3 of 3
K24Q/V29A/S103Q	180 nM	3 of 3
K24R/A57G/Q96C	140 nM	1 of 3
K24D/Q96R	41 µM	2 of 3
K24E/S62N/S103M	49 nM	3 of 3
K24N/Y31R/S33V	400 nM	3 of 3
K24W/S25E/S62T	580 nM	1 of 3
K24A/Q96L/H98T	14 nM	3 of 3
K24T/A40G/W56M	not detected	0 of 3
K24F/R34P/A57G	6.4 nM	3 of 3
K24A/Q27D	13 nM	3 of 3
K24T/Y31R/K36V	1.4 µM	1 of 3
K24I/R34L/W56L	20 nM	3 of 3
K24Y/E61Q/Q96W	620 µM	1 of 3
K24Y/K36C/Q95A	2.1 µM	2 of 3
K24V/S38A/L100Y	5.9 µM	1 of 3
K24N/N35M/N37A	260 nM	3 of 3
K24T/Y31L/E32Q	1.9 µM	1 of 3
K24E/Y31K/S62L	370 nM	3 of 3
K24I/R60M/H98S	14 µM	2 of 3
K24A/S25I/R60A	28 nM	3 of 3
K24E/R34E/R99I	340 nM	3 of 3
K24F/A57V	not detected	0 of 3
K24V/E32Y/L100E	not detected	0 of 3
K24Y/Q27Y/E32N	91 nM	3 of 3
K24I/Y31Q/A57H	190 µM	3 of 3
K24Q/E32R/V39F	not detected	0 of 3
K24V/S62M/H98V	170 nM	3 of 3
K24Q/S38Q	770 nM	3 of 3
K24C/S26M/P101Q	not detected	0 of 3
K24C/T59H/Q96V	not detected	0 of 3
K24W/R34K	41 nM	3 of 3
K24E	27 nM	3 of 3
K24D/S26K/Q95S	200 µM	2 of 3
K24T/L30H	160 nM	3 of 3
K24P/L30I/L100I	18 µM	3 of 3
K24D/S25H/R60Y	870 µM	1 of 3
K24S/S33A/A57G	3.1 nM	3 of 3

A selection of 6 entries from above:

{"changes": "K24D/Q96R", "Kd": "41 µM", "detected": "2 of 3"}
{"changes": "K24N/N35M/N37A", "Kd": "260 nM", "detected": "3 of 3"}
{"changes": "K24C/T59H/Q96V", "Kd": "not detected", "detected": "0 of 3"}
{"changes": "K24V/E32Y/L100E", "Kd": "not detected", "detected": "0 of 3"}
{"changes": "K24S", "Kd": "8.8 nM", "detected": "3 of 3"}
{"changes": "K24N/V29E/N37I", "Kd": "33 nM", "detected": "3 of 3"}